Reference: ChEMBL document CHEMBL4417631, “Oral peptide inhibitors of interleukin-23 receptor and their use to treat inflammatory bowel diseases” (2017)

target: T1, Interleukin-23 receptor (Homo sapiens, UniProt Q5VWK5); test: Inhibition of interleukin-23 binding to human interleukin-23 receptor incubated for 2 hrs by competitive binding ELISA
T1 sequence (Q5VWK5 whole entry): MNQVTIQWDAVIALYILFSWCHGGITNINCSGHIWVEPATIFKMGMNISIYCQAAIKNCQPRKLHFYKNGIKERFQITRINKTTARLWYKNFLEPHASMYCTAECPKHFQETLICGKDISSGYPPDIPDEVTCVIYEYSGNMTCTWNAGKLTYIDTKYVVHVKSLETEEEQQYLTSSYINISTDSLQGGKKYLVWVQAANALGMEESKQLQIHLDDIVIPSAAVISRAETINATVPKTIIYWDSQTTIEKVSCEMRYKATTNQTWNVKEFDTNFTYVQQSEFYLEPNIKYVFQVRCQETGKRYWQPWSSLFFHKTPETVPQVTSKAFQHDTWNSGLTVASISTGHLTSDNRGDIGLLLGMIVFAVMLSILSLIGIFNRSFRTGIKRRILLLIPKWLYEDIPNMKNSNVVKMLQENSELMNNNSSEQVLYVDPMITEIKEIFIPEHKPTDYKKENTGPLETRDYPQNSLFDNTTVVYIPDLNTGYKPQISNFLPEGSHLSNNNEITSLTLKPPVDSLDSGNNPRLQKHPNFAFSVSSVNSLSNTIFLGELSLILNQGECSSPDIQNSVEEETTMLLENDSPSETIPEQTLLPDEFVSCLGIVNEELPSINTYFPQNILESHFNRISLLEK

SMILES | IC50 [nM]
CC(=O)N[C@@H](CS)C(=O)N[C@@H](CCCNC(=N)N)C(=O)N[C@H](C(=O)N[C@@H](Cc1c[nH]c2ccccc12)C(=O)N[C@@H](CCC(N)=O)C(=O)N[C@@H](CS)C(=O)N[C@@H](Cc1ccc(O)cc1)C(=O)N[C@@H](Cc1c[nH]c2ccccc12)C(=O)N[C@@H](CCC(N)=O)C(=O)N[C@@H](CCC(=O)O)C(=O)N[C@@H](CCCCN)C(=O)NCC(=O)N[C@H](C(=O)N[C@@H](CC(=O)O)C(N)=O)[C@@H](C)O)[C@@H](C)O | 118
CC(=O)N[C@@H](CS)C(=O)N[C@@H](CCC(N)=O)C(=O)N[C@H](C(=O)N[C@@H](Cc1c[nH]c2ccccc12)C(=O)N[C@@H](CCC(N)=O)C(=O)N[C@@H](CS)C(=O)N[C@@H](Cc1ccc(O)cc1)C(=O)N[C@@H](Cc1c[nH]c2ccccc12)C(=O)N[C@@H](CCC(C)C)C(=O)N[C@@H](CCC(=O)O)C(=O)N[C@@H](CC(N)=O)C(=O)NCC(=O)N[C@@H](CC(C)C)C(N)=O)[C@@H](C)O | 174
CC(=O)N[C@@H](CS)C(=O)N[C@@H](CCC(N)=O)C(=O)N[C@H](C(=O)N[C@@H](Cc1c[nH]c2ccccc12)C(=O)N[C@@H](CCC(N)=O)C(=O)N[C@@H](CS)C(=O)N[C@@H](Cc1ccc(O)cc1)C(=O)N[C@@H](Cc1c[nH]c2ccccc12)C(=O)N[C@@H](CCCNC(=N)N)C(=O)N[C@H](CC(=O)N[C@H](C(=O)N[C@@H](CC(N)=O)C(=O)NCC(=O)NCCOCC(=O)N[C@H](CCCCN)C(N)=O)C(C)C)CC(C)C)[C@@H](C)O | 311
CC(=O)N[C@@H](CS)C(=O)N[C@@H](CCC(N)=O)C(=O)N[C@H](C(=O)N[C@@H](Cc1c[nH]c2ccccc12)C(=O)N[C@@H](CCC(N)=O)C(=O)N[C@@H](CS)C(=O)N[C@@H](Cc1ccc(O)cc1)C(=O)N[C@@H](Cc1c[nH]c2ccccc12)C(=O)N[C@@H](CCC(C)C)C(=O)N[C@@H](CCC(=O)O)C(=O)N[C@H](C(=O)NCC(N)=O)[C@@H](C)O)[C@@H](C)O | 818
CC(=O)N[C@@H](CS)C(=O)N[C@@H](CCC(N)=O)C(=O)N[C@H](C(=O)N[C@@H](Cc1c[nH]c2ccccc12)C(=O)N[C@@H](CCC(N)=O)C(=O)N[C@@H](CS)C(=O)N[C@@H](Cc1ccc(O)cc1)C(=O)N[C@@H](Cc1c[nH]c2ccccc12)C(=O)N[C@@H](CCCNC(=N)N)C(=O)N[C@@H](C)CC(=O)N[C@@H](CC(N)=O)C(=O)NCC(=O)NCCOCC(=O)N[C@H](CCCCN)C(N)=O)[C@@H](C)O | 457

More lines, in order of falling IC50, values ahead:

IC50 [nM] | SMILES
4830 | CC(=O)N[C@@H](CS)C(=O)N[C@@H](CCC(N)=O)C(=O)N[C@H](C(=O)N[C@@H](Cc1c[nH]c2ccccc12)C(=O)N[C@@H](CCC(N)=O)C(=O)N[C@@H](CS)C(=O)N[C@@H](Cc1ccc(O)cc1)C(=O)N[C@@H](Cc1c[nH]c2ccccc12)C(=O)N[C@@H](CCC(C)C)C(=O)N1CCC[C@H]1C(=O)N[C@@H](CC(N)=O)C(=O)NCC(N)=O)[C@@H](C)O
501 | CC(=O)N[C@@H](CS)C(=O)N[C@@H](CCC(N)=O)C(=O)N[C@H](C(=O)N[C@@H](Cc1c[nH]c2ccccc12)C(=O)N[C@@H](CCC(N)=O)C(=O)N[C@@H](CS)C(=O)N[C@@H](Cc1ccc(O)cc1)C(=O)N[C@@H](Cc1c[nH]c2ccccc12)C(=O)N[C@@H](CCCNC(=N)N)C(=O)N[C@H](CC(=O)N[C@H](C(=O)N[C@@H](CC(N)=O)C(=O)NCC(=O)NCCOCC(=O)N[C@H](CCCCN)C(N)=O)C(C)C)C(C)C)[C@@H](C)O
355 | CC(=O)N[C@@H](CS)C(=O)N[C@@H](CCC(N)=O)C(=O)N[C@H](C(=O)N[C@@H](Cc1c[nH]c2ccccc12)C(=O)N[C@@H](CCC(N)=O)C(=O)N[C@@H](CS)C(=O)N[C@@H](Cc1ccc(O)cc1)C(=O)N[C@@H](Cc1c[nH]c2ccccc12)C(=O)N[C@@H](CCCNC(=N)N)C(=O)N[C@@H](C)CC(=O)N[C@H](C(=O)N[C@@H](CC(N)=O)C(=O)NCC(=O)NCCOCC(=O)N[C@H](CCCCN)C(N)=O)C(C)C)[C@@H](C)O
315 | CC(=O)N[C@@H](CS)C(=O)N[C@@H](CCC(N)=O)C(=O)N[C@H](C(=O)N[C@@H](Cc1c[nH]c2ccccc12)C(=O)N[C@@H](CCC(N)=O)C(=O)N[C@@H](CS)C(=O)N[C@@H](Cc1ccc(O)cc1)C(=O)N[C@@H](Cc1c[nH]c2ccccc12)C(=O)N[C@@H](CCCNC(=N)N)C(=O)N[C@@H](CC(N)=O)C(=O)N[C@@H](Cc1ccccc1)C(=O)N[C@@H](CCC(=O)O)C(=O)N[C@@H](CO)C(=O)NCC(N)=O)[C@@H](C)O
224 | CC(=O)N[C@@H](CS)C(=O)N[C@@H](CCC(N)=O)C(=O)N[C@H](C(=O)N[C@@H](Cc1c[nH]c2ccccc12)C(=O)N[C@@H](CCC(N)=O)C(=O)N[C@@H](CS)C(=O)N[C@@H](Cc1ccc(O)cc1)C(=O)N[C@@H](Cc1c[nH]c2ccccc12)C(=O)N[C@@H](CCCNC(=N)N)C(=O)N[C@H](CC(=O)N[C@@H](CC(N)=O)C(=O)NCC(=O)NCCOCC(=O)N[C@H](CCCCN)C(N)=O)CC(C)C)[C@@H](C)O
109 | CC(=O)N[C@@H](CS)C(=O)N[C@@H](CCC(N)=O)C(=O)N[C@H](C(=O)N[C@@H](Cc1c[nH]c2ccccc12)C(=O)N[C@@H](CCC(N)=O)C(=O)N[C@@H](CS)C(=O)N[C@@H](Cc1ccc(O)cc1)C(=O)N[C@@H](Cc1c[nH]c2ccccc12)C(=O)N[C@@H](CCC(C)C)C(=O)N[C@H](C(=O)N[C@@H](CC(N)=O)C(=O)NCC(N)=O)[C@@H](C)O)[C@@H](C)O
